This is a selection; strong and weak results do not stand in their true shares. Activity calls are given as the source filed them. Cut-off read from the data, not from the text of the source: active = inhibition above about 40%.
Biological target: Bcl-2-like protein 1 (Homo sapiens) (UniProt Q07817)
Assay: inhibitors of Bim-Bcl-XL binding, primary screen, biochemical, multiplexed, bead flow cytometry, human Bcl-XL (AID 1007)
Conditions: Bim peptide-Bcl-XL binding, fluorescence, at 10 µM, active compounds read high

The chains behind the UniProt entries cited, without tags or fusion partners.
UniProt Q07817, whole entry: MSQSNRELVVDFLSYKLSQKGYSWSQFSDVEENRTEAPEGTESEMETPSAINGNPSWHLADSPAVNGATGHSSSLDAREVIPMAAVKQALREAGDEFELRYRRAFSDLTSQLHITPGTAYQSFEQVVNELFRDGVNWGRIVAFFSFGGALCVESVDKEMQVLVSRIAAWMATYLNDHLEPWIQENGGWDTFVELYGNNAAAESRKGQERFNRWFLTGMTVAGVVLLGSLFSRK

SMILES	inhibition
CN1CCCCC1COC(=O)C1(O)c2ccccc2CCc2ccccc21 (centres undefined)	inactive: -6%
COc1ccccc1OP(C)(=O)Nc1c(C)cccc1C (centres undefined)	inactive: 0%
COc1ccc(NP(C)(=O)Oc2ccccc2OC)cc1 (centres undefined)	inactive: -2%
CN(C)CCOC(=O)C(O)(c1ccccc1)C1CCCCC1 (centres undefined)	inactive: -3%
COc1ccc(OP(C)(=O)Nc2cccc(Br)c2)cc1 (centres undefined)	inactive: -8%
O=[N+]([O-])c1cc([N+](=O)[O-])c(NCC2CCS(=O)(=O)C2)c([N+](=O)[O-])c1 (centres undefined)	inactive: -2%
CCOP(C)(=S)SCC(=O)NC(C)(CC)C(=O)O (centres undefined)	inactive: -6%
Cc1ccccc1NP(C)(=O)Nc1ccccc1C	inactive: -5%
CP(=O)(Nc1ccc2c(c1)OCCO2)Oc1ccccc1 (centres undefined)	inactive: -1%
CC(C)c1ccc(OP(C)(=O)Nc2ccc(SC(F)(F)F)cc2)cc1 (centres undefined)	inactive: -19%
CP(=O)(Nc1ccccc1F)Oc1ccccc1 (centres undefined)	inactive: -2%
O=C(OCCN1CCN(CCOCc2ccccc2)CC1)C(O)(c1ccccc1)c1ccccc1	inactive: -4%
COc1ccc(OP(C)(=O)Nc2ccc(SC(F)(F)F)cc2)cc1 (centres undefined)	inactive: -2%
CCOC(=O)c1ccc(NP(C)(=O)Oc2ccc(F)cc2)cc1 (centres undefined)	inactive: -3%
CP(=O)(Nc1ccccc1)Oc1ccc(F)cc1 (centres undefined)	inactive: -2%
CCN(CC)CCCOC(=O)C(O)(c1ccccc1)C1CCCCC1 (centres undefined)	inactive: -5%
COc1ccc(OP(C)(=O)Nc2ccccc2Br)cc1 (centres undefined)	inactive: -6%
COc1ccccc1OP(C)(=O)Nc1ccc(C)c(C)c1 (centres undefined)	inactive: 0%
Cc1cc(C)cc(OP(C)(=O)Nc2cccc(C(F)(F)F)c2)c1 (centres undefined)	inactive: -1%
CP(=O)(OCCOc1ccccc1)OCCOc1ccccc1	inactive: -2%

SMILES	inhibition
CP(=O)(Nc1ccc(Cl)cc1Cl)Oc1ccccc1 (centres undefined)	inactive: -4%
Cc1nc2ccc3ccccc3c2o1.O=[N+]([O-])c1cc([N+](=O)[O-])c(O)c([N+](=O)[O-])c1	inactive: 0%
CN(C)CCOC(=O)C(O)(c1ccccc1)C1CCCC1 (centres undefined)	inactive: -4%
COc1ccc(OP(C)(=O)Nc2ccccn2)cc1 (centres undefined)	inactive: -6%
CCc1ccc(OP(C)(=O)O)cc1	inactive: -2%
CP(=O)(Nc1ccccn1)Oc1ccccc1 (centres undefined)	inactive: -4%
COc1ccccc1OP(C)(=O)Nc1ccc(C)cc1C (centres undefined)	inactive: 5%
O=[N+]([O-])c1cc([N+](=O)[O-])c(Nc2ccccn2)c([N+](=O)[O-])c1	inactive: -5%
Cc1c(NP(C)(=O)Oc2ccc(C(C)C)cc2)c(=O)n(-c2ccccc2)n1C (centres undefined)	inactive: -1%
CP(=O)(Oc1ccccc1)N1CCOC1=O (centres undefined)	inactive: -3%
CCc1ccc(OP(C)(=O)Nc2cccnc2)cc1 (centres undefined)	inactive: -1%
CCN(CC)CC(O)COC(=O)C(O)(c1ccccc1)C1CCCCC1 (centres undefined)	inactive: -7%
COc1ccc(OP(C)(=O)Nc2ccc(Br)cc2)cc1 (centres undefined)	inactive: -5%
CN(C)C(=O)c1c([N+](=O)[O-])cc([N+](=O)[O-])cc1[N+](=O)[O-]	inactive: 0%
CP(=O)(Nc1ccc(Cl)cc1)Oc1ccc(F)cc1 (centres undefined)	inactive: -3%
CC(C)(C)c1ccc(OP(C)(=O)O)cc1	inactive: 0%
COc1ccccc1OP(C)(=O)Nc1ccccc1Br (centres undefined)	inactive: -2%
CP(=O)(OC12CC3CC(CC(C3)C1)C2)OC12CC3CC(CC(C3)C1)C2	inactive: -3%
CCOC(=O)c1ccc(NP(C)(=O)Oc2ccc(Cl)cc2)cc1 (centres undefined)	inactive: -6%

— PubChem BioAssay AID1007 (NMMLSC, 2008)
